Measured values published in patent US12453779B2, “Chemoselective thiol-conjugation with alkene or alkyne-phosphonothiolates and -phosphonates” (FORSCHUNGSVERBUND BERLIN E.V., priority 2018, dated 2025).

Test system: Cetuximab
Test: Cetuximab conjugation, anti-biotin Western blot
Settings: for modification without prior reduction of the disulfide bonds with DTT: non-reduced antibody

## C=CP(=O)(OCC)SCCCCC[C@@H]1SC[C@@H]2NC(=O)N[C@@H]21 (some centres unmarked)
Antibody reduced with DTT, pH=7.4 (lane 3) and pH=8.5 (lane 5)
  modification of the antibody fragments (heavy and light chain): could be confirmed
  modification without prior reduction of the disulfide bonds with DTT: no modification could be detected
Reduced antibody, pH 7.4 to 8.5
  labelling of the antibody in dependence of pH: higher for higher pH=8.5

## biotin-maleimide
  modification without prior reduction of the disulfide bonds with DTT: modification detected
Reduced antibody, pH=7.4, lane 1 vs lane 3
  degree of modification compared to the PT: higher compared to the PT
